Source: US9221831B2, “Buprenorphine analogs” (dated 2015)

How the values were obtained:
[1] = target: T1, human opioid receptor-like (ORL-1) (Homo sapiens (Human), UniProt P41146); experiment: ORL-1 receptor functional assay ([35S]GTPγS); conditions: [35S]GTPγS functional assay
[2] = target: μ-opioid receptor (Homo sapiens (Human), UniProt P35372); experiment: μ-opioid receptor functional assay ([35S]GTPγS); conditions: [35S]GTPγS functional assay
[3] = target: κ opioid receptor (Homo sapiens (Human), UniProt P41145); experiment: κ-opioid receptor functional assay ([35S]GTPγS); conditions: [35S]GTPγS functional assay
[4] = target: T1, human opioid receptor-like (ORL-1); experiment: ORL-1 receptor binding assay ([3H]-nociceptin)
[5] = target: T2, δ opioid receptor (Homo sapiens (Human), UniProt P41143); experiment: δ-opioid receptor functional assay ([35S]GTPγS); conditions: [35S]GTPγS functional assay
[6] = target: T2, δ opioid receptor; experiment: δ-opioid receptor binding assay ([3H]-Naltrindole dose-displacement)

Structure (SMILES)	GTPγS ORL-1 Emax [1]	GTPγS Opioid Receptor μ Emax [2]	GTPγS Opioid Receptor κ Emax [3]	Binding Affinity, ORL-1 [4]	GTPγS Opioid Receptor δ Emax [5]	GTPγS Opioid Receptor μ EC50 [2]	Binding Affinity, Opioid Receptor δ [6]
CO[C@]12CC[C@@]3(C[C@@H]1COCc1ccccc1)[C@H]1Cc4ccc(NC(C)=O)c5c4[C@@]3(CCN1C)[C@H]2O5	105.00%	87.67%	76.00%				
COc1ccc2c3c1O[C@H]1[C@@]4(OC)CC[C@@]5(C[C@@H]4CSc4nc6ccccc6s4)[C@@H](C2)N(C)CC[C@]315		101.33%	89.00%	Partial	106.67%		
COc1ccc2c3c1O[C@H]1[C@@]4(OC)CC[C@@]5(C[C@@H]4COCc4ccc(C(O)CO)cc4)[C@@H](C2)N(CC2CC2)CC[C@]315 (stereo partly drawn)		25.00%	72.33%	Inactive	73.33%		
COc1ccc2c3c1O[C@H]1[C@@]4(OC)CC[C@@]5(C[C@@H]4CSc4nc(C)ns4)[C@@H](C2)N(CC2CC2)CC[C@]315			66.33%	Inactive	57.67%	Inactive	
COc1ccc2c3c1O[C@H]1[C@@]4(OC)CC[C@@]5(C[C@@H]4CNCC(=O)O)[C@@H](C2)N(CC2CC2)CC[C@]315		31.33%	60.00%	Inactive			Inactive
CO[C@]12CC[C@@]3(C[C@@H]1COCc1ccccc1)[C@H]1Cc4ccc(Br)c5c4[C@@]3(CCN1CC1CC1)[C@H]2O5		19.67%	88.33%	Inactive	80.00%		
COc1ccc2c3c1O[C@H]1[C@@]4(OC)CC[C@@]5(C[C@@H]4COCc4ccccc4)[C@@H](C2)N(CC(=O)O)CC[C@]315		52.00%	66.67%	Inactive			Inactive
